For 23 compounds, IC50 results are on record in patent US10112926B2 (priority 2014, dated 2018).

Sequences of proteins named here, by UniProt entry; tags and fusion partners are left off. A change or cut given only in a name is not applied to a line headed by its entry.
UniProt P42336, whole entry, looked up: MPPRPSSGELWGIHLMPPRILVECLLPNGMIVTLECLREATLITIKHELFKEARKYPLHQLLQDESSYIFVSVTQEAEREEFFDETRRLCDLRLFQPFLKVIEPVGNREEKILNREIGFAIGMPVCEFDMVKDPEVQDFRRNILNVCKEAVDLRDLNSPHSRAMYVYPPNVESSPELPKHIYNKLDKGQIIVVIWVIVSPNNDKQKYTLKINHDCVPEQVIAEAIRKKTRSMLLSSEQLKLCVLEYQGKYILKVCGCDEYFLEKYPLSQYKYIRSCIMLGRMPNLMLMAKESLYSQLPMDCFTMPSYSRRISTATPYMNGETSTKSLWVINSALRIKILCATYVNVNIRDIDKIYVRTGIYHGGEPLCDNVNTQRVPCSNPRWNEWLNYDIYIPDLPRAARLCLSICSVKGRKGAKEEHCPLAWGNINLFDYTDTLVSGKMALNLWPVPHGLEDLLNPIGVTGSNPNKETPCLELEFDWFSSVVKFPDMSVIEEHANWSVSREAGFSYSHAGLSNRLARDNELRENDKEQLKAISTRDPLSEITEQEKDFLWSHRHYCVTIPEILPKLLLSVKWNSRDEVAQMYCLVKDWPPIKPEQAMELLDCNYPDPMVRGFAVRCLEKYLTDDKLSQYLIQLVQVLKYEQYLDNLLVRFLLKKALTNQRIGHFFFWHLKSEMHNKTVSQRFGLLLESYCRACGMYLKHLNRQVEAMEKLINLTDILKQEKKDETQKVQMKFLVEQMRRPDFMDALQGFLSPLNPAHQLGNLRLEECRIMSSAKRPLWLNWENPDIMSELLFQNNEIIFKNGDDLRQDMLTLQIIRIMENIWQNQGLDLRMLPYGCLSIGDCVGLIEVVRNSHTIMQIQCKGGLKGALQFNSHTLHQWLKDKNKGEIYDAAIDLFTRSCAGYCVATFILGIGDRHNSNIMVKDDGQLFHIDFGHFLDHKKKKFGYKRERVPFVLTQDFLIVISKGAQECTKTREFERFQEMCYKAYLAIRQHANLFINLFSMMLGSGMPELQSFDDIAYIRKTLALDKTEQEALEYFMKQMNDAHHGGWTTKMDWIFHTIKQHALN
UniProt P42338: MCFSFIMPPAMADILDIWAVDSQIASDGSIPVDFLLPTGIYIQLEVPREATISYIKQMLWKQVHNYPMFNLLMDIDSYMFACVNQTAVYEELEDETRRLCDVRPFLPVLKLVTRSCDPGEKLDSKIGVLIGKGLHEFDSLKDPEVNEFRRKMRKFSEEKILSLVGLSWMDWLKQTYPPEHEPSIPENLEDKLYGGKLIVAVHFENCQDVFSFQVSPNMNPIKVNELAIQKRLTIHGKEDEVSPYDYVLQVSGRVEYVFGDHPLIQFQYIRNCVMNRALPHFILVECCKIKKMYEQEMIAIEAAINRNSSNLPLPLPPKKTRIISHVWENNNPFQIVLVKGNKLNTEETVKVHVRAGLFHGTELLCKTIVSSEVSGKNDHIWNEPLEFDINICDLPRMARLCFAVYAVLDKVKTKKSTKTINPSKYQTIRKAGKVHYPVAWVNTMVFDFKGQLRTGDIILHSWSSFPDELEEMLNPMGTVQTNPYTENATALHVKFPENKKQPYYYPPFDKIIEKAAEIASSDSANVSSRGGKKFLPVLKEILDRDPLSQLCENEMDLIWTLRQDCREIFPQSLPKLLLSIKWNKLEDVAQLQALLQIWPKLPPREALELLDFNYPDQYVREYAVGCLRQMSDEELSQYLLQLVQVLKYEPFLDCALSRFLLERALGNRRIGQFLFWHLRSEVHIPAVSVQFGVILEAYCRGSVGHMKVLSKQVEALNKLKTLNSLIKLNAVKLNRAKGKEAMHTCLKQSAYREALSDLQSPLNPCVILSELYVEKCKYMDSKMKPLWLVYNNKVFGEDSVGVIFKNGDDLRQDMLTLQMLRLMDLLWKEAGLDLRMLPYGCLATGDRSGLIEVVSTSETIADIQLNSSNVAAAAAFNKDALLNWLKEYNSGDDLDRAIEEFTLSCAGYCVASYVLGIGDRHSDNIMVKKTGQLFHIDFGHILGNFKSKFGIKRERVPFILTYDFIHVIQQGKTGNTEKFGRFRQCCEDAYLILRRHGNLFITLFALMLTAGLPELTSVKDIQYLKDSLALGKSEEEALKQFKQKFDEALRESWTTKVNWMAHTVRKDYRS

Assay [1] addresses PI 3-kinase alpha (Rat-1 pBABEpuro Myr-HA-hp110 alpha cells) (Homo sapiens (Human), UniProt P42336). The assay is described as follows: cell-based. The conditions noted are these: Assay H PI3Kα IC50.
The next assay has as its target PI 3-kinase alpha (Homo sapiens (Human), UniProt P42336). The conditions noted are these: read-out: Assay A PI3Kα IC50.
Another assay addresses PI 3-kinase beta (Homo sapiens (Human), UniProt P42338). The conditions noted are these: read-out: Assay B PI3Kβ IC50.
The target in assay [2] is PI 3-kinase beta (Rat-1 pBABEpuro Myr-HA-hp110 beta cells) (Homo sapiens (Human), UniProt P42338). Put plainly: cell-based. The conditions noted are these: Assay I PI3Kβ IC50.

The structures appear in SMILES notation. Counter-ions that a name gives are not always drawn.

With `Cc1cc(-c2cc(-c3cc(S(=O)(=O)NC4CCOCC4)ccc3C)cnc2N)on1` [Example 37.8, 3-(6-Amino-5-(3-methylisoxazol-5-yl)pyridin-3-yl)-4-methyl-N-(tetrahydro-2H-pyran-4-yl)benzenesulfonamide], the IC50 (usually the midpoint of a concentration-inhibition curve) in assay [1] is > 10 µM; on PI 3-kinase alpha it was 0.3 µM; at PI 3-kinase beta, 4.8 µM; in assay [2], > 10 µM.
For the compound `Cc1ncc(-c2cc(-c3cc(S(N)(=O)=O)ccc3C)cnc2N)s1` [Example 74, 3-(6-Amino-5-(2-methylthiazol-5-yl)pyridin-3-yl)-4-methylbenzenesulfonamide], the concentration for half-maximal inhibition (IC50) in assay [1] is > 10 µM; at PI 3-kinase alpha, 0.52 µM; at PI 3-kinase beta, 5.9 µM; in assay [2], > 10 µM.
Regarding `Cc1noc(-c2cc(-c3cc(S(=O)(=O)NCC4(CO)CCC4)ccc3C)cnc2N)n1` [Example 37.26, 3-(6-Amino-5-(3-methyl-1,2,4-oxadiazol-5-yl)pyridin-3-yl)-N-((1-(hydroxymethyl)cyclobutyl)methyl)-4-methylbenzenesulfonamide], the IC50 in assay [1] worked out at 2.23 µM; at PI 3-kinase alpha it was 0.72 µM; at PI 3-kinase beta, 3.1 µM; in assay [2], 2.89 µM.
As for `Cc1ncc(-c2cc(-c3cc(S(=O)(=O)NCC4(CO)COC4)ccc3C)cnc2N)o1` [Example 67, 3-(6-Amino-5-(2-methyloxazol-5-yl)pyridin-3-yl)-N-((3-(hydroxymethyl)oxetan-3-yl)methyl)-4-methylbenzenesulfonamide], the IC50 is > 10 µM in assay [1], 0.22 µM at PI 3-kinase alpha, 2.3 µM on PI 3-kinase beta and > 10 µM in assay [2].
In the case of `Cc1ncc(-c2cc(-c3cc(S(=O)(=O)NCC4(C)COC4)ccc3C)cnc2N)o1` [Example 69, 3-(6-Amino-5-(2-methyloxazol-5-yl)pyridin-3-yl)-4-methyl-N-((3-methyloxetan-3-yl)methyl)benzenesulfonamide], the half-inhibitory concentration (IC50) in assay [1] was > 10 µM; on PI 3-kinase alpha it was 0.32 µM; at PI 3-kinase beta, 2.2 µM; in assay [2], 2.7 µM.
In the case of `CCCONS(=O)(=O)c1ccc(C)c(-c2cnc(N)c(-c3nc(C)no3)c2)c1` [Example 44, 3-(6-Amino-5-(3-methyl-1,2,4-oxadiazol-5-yl)pyridin-3-yl)-4-methyl-N-propoxybenzenesulfonamide], the half-maximal inhibitory concentration (IC50) in assay [1] was 0.3 µM; on PI 3-kinase alpha it was 0.05 µM; on PI 3-kinase beta, 1.6 µM; in assay [2] it was > 10 µM.
For the compound `Cc1cnc(-c2cc(-c3cc(S(=O)(=O)N[C@H]4CC[C@H](O)CC4)ccc3C)cnc2N)o1` [Example 5.2, trans 3-(6-Amino-5-(5-methyloxazol-2-yl)pyridin-3-yl)-N-(4-hydroxycyclohexyl)-4-methylbenzene sulfonamide hydrochloride], the half-maximal inhibitory concentration (IC50) in assay [1] is 0.63 µM; at PI 3-kinase alpha it was 0.19 µM; on PI 3-kinase beta it was 1.3 µM; in assay [2], > 3 µM.
In the case of `Cc1noc(-c2cc(-c3cc(S(=O)(=O)NOCC(C)(C)O)ccc3C)cnc2N)n1` [Example 11, 3-[6-Amino-5-(3-methyl-[1,2,4]oxadiazol-5-yl)-pyridin-3-yl]-N-(2-hydroxy-2-methyl-propoxy)-4-methyl-benzenesulfonamide, hydrochloride salt], the IC50 in assay [1] was determined as 0.15 µM; at PI 3-kinase alpha, 0.07 µM; at PI 3-kinase beta it was 0.29 µM; in assay [2] it was 0.72 µM.
For `Cc1noc(-c2cc(-c3cc(S(=O)(=O)NCCC(F)(F)F)ccc3C)cnc2N)n1` [Example 48, 3-(6-Amino-5-(3-methyl-1,2,4-oxadiazol-5-yl)pyridin-3-yl)-4-methyl-N-(3,3,3-trifluoropropyl)benzenesulfonamide] the same measures were > 10 µM, 0.3 µM, 5.1 µM and > 10 µM.
As for `Cc1noc(-c2cc(-c3cc(S(=O)(=O)NCC4(O)CCC4)ccc3C)cnc2N)n1` [Example 37.15, 3-(6-Amino-5-(3-methyl-1,2,4-oxadiazol-5-yl)pyridin-3-yl)-N-((1-hydroxycyclobutyl)methyl)-4-methylbenzenesulfonamide], the IC50 came to 2.07 µM in assay [1], 0.29 µM on PI 3-kinase alpha, 3.9 µM at PI 3-kinase beta and 3.61 µM in assay [2].
For `Cc1noc(-c2cc(-c3cc(S(=O)(=O)NOC(C)(C)C)ccc3C)cnc2N)n1` [Example 47, 3-(6-Amino-5-(3-methyl-1,2,4-oxadiazol-5-yl)pyridin-3-yl)-N-(tert-butoxy)-4-methylbenzenesulfonamide] the same measures were > 10 µM, 0.1 µM, 0.89 µM and > 10 µM.
Take `Cc1ccc(S(=O)(=O)NCC(C)(C)O)cc1-c1cnc(N)c(-c2cnoc2C)c1` [Example 62, 3-(6-Amino-5-(5-methylisoxazol-4-yl)pyridin-3-yl)-N-(2-hydroxy-2-methylpropyl)-4-methylbenzenesulfonamide]: the half-maximal inhibitory concentration (IC50) in assay [1] was > 10 µM; on PI 3-kinase alpha it was 1.2 µM; on PI 3-kinase beta, > 10 µM; in assay [2], > 10 µM.
Regarding `Cc1noc(-c2cc(-c3cc(S(=O)(=O)N4CC[C@H](O)C4)ccc3C)cnc2N)n1` [Example 37.32, (S)-1-((3-(6-Amino-5-(3-methyl-1,2,4-oxadiazol-5-yl)pyridin-3-yl)-4-methylphenyl)sulfonyl)pyrrolidin-3-ol hydrochloride], the IC50 in assay [1] was > 10 µM; at PI 3-kinase alpha, 1.1 µM; at PI 3-kinase beta, > 10 µM; in assay [2] it was > 10 µM.
For the compound `Cc1cc(-c2cc(-c3cc(S(=O)(=O)NCC4(CO)CCOCC4)ccc3C)cnc2N)on1` [Example 37.1, 3-(6-Amino-5-(3-methylisoxazol-5-yl)pyridin-3-yl)-N-((4-(hydroxymethyl)tetrahydro-2H-pyran-4-yl)methyl)-4-methylbenzenesulfonamide], the IC50 in assay [1] worked out at 5.83 µM; at PI 3-kinase alpha it was 0.34 µM; on PI 3-kinase beta, 5.5 µM; in assay [2], 4.22 µM.
`Cc1ccc(S(=O)(=O)NCC(C)(C)O)cc1-c1cnc(N)c(-c2cn(C)nn2)c1` [Example 63, 3-(6-Amino-5-(1-methyl-1H-1,2,3-triazol-4-yl)pyridin-3-yl)-N-(2-hydroxy-2-methylpropyl)-4-methylbenzenesulfonamide hydrochloride]: the 50% inhibitory concentration (IC50) was > 3 µM in assay [1], 2.2 µM on PI 3-kinase alpha, 5.1 µM on PI 3-kinase beta and > 10 µM in assay [2].
For the compound `Cc1noc(-c2cc(-c3cc(S(=O)(=O)NC4CCN(C(C)C)CC4)ccc3C)cnc2N)n1` [Example 37.34, 3-(6-Amino-5-(3-methyl-1,2,4-oxadiazol-5-yl)pyridin-3-yl)-N-(1-isopropylpiperidin-4-yl)-4-methylbenzenesulfonamide], the IC50 in assay [1] was > 10 µM; on PI 3-kinase alpha it was 1.4 µM; on PI 3-kinase beta, > 10 µM; in assay [2], > 10 µM.
With `CONS(=O)(=O)c1ccc(C)c(-c2cnc(N)c(-c3nc(C)no3)c2)c1` [Example 46, 3-(6-Amino-5-(3-methyl-1,2,4-oxadiazol-5-yl)pyridin-3-yl)-N-methoxy-4-methylbenzenesulfonamide], the IC50 in assay [1] is 1.46 µM; on PI 3-kinase alpha, 0.39 µM; at PI 3-kinase beta, > 10 µM; in assay [2] it was > 10 µM.
Regarding `Cc1noc(-c2cc(-c3cc(S(=O)(=O)NCCC4(O)CCCC4)ccc3C)cnc2N)n1` [Example 37.11, 3-(6-Amino-5-(3-methyl-1,2,4-oxadiazol-5-yl)pyridin-3-yl)-N-(2-(1-hydroxycyclopentyl)ethyl)-4-methylbenzenesulfonamide], the IC50 in assay [1] was found to be 0.9 µM; on PI 3-kinase alpha it was 0.19 µM; at PI 3-kinase beta, 1.3 µM; in assay [2] it was 2.52 µM.
In the case of `Cc1cccc(NS(=O)(=O)c2ccc(C)c(-c3cnc(N)c(-c4nc(C)no4)c3)c2)n1` [Example 72, 3-(6-Amino-5-(3-methyl-1,2,4-oxadiazol-5-yl)pyridin-3-yl)-4-methyl-N-(6-methylpyridin-2-yl)benzenesulfonamide], the half-maximal inhibitory concentration (IC50) is 5.2 µM in assay [1], 1.2 µM at PI 3-kinase alpha, 1.3 µM on PI 3-kinase beta and 1.78 µM in assay [2].
Consider `Cc1cc(-c2cc(-c3cc(S(=O)(=O)NCC4(O)CCCC4)ccc3C)cnc2N)on1` [Example 53, 3-(6-Amino-5-(3-methylisoxazol-5-yl)pyridin-3-yl)-N-((1-hydroxycyclopentyl)methyl)-4-methylbenzenesulfonamide], for which the IC50 in assay [1] is > 10 µM; on PI 3-kinase alpha, 0.68 µM; on PI 3-kinase beta it was 2.2 µM; in assay [2], 6.07 µM.
In the case of `Cc1noc(-c2cc(-c3cc(S(=O)(=O)NCC4CCCO4)ccc3C)cnc2N)n1` (centres unmarked) [Example 57, 3-(6-Amino-5-(3-methyl-1,2,4-oxadiazol-5-yl)pyridin-3-yl)-4-methyl-N-((tetrahydrofuran-2-yl)methyl)benzenesulfonamide], the IC50 in assay [1] was 3.23 µM; on PI 3-kinase alpha, 1.7 µM; on PI 3-kinase beta, > 10 µM; in assay [2], 8.72 µM.
As for `Cc1noc(-c2cc(-c3cc(S(=O)(=O)NCCC(C)(C)O)ccc3C)cnc2N)n1` [Example 5, 3-[6-Amino-5-(3-methyl-[1,2,4]oxadiazol-5-yl)-pyridin-3-yl]-N-(3-hydroxy-3-methyl-butyl)-4-methyl-benzenesulfonamide hydrochloride], the half-maximal inhibitory concentration (IC50) in assay [1] worked out at 0.74 µM; at PI 3-kinase alpha, 0.08 µM; at PI 3-kinase beta, 1.15 µM; in assay [2] it was 1.44 µM.
On the same counts, the results for `Cc1cc(-c2cc(-c3cc(S(=O)(=O)NCC4(O)CCOCC4)ccc3C)cnc2N)on1` [Example 54, 3-(6-Amino-5-(3-methylisoxazol-5-yl)pyridin-3-yl)-N-((4-hydroxytetrahydro-2H-pyran-4-yl)methyl)-4-methylbenzenesulfonamide] are > 10 µM, 0.79 µM, 4.5 µM and > 10 µM.
